## Apparent affinities of Ab-14 variants for a coronavirus HR2 peptide

Target peptide (SARS-CoV-2 spike, HR2 region): PDVDLGDISGINAS

Ab-14 is the parent antibody, in scFv form: VH, then the linker GGGGSGGGGSGGGGS, then VL. The light chain is unchanged in all variants.
VH: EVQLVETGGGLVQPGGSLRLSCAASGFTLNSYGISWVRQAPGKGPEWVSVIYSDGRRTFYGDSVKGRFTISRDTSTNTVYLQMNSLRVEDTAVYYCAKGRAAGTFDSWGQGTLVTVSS
VL: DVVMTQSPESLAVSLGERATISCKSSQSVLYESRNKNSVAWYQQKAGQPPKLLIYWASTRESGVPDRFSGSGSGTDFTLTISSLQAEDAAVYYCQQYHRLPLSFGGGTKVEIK

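Phage display of a naive human antibody library on the peptide gave the parent. The library (AAYL49) carries one to three amino acid substitutions per variant, with no insertions or deletions. The assay is AlphaSeq: two haploid yeast populations carry antibody and antigen on their surface. Binding brings cells together so that they mate, and sequencing counts the barcode pairs among the diploids. A regression on co-assayed BCL2-family reference pairs converts the normalised counts of each replicate to an apparent Kd. Each pool was mated in three replicate cultures.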

Variants are written as CDR1, CDR2 and CDR3 of the heavy chain (limits as in the source). Parent: GFTLNSYGIS, VIYSDGRRTFYGDSVK, GRAAGTFDS. Kd is apparent (estimated from mating counts) and averaged on the log scale over replicates with a signal. Smaller is tighter. A pair that was not seen in any replicate is written "nd"; this usually means weak binding, but a binder can also be missed. Background: pairings of library AAYL49 with three empty control strains gave a value in 15% of cases (median 11 µM, 5th percentile 680 nM). Values in that range, when seen in few replicates, are hard to tell from nonspecific mating. The control count says in how many pairings with the empty strains this scFv gave a signal.

CDR-H1 | CDR-H2 | CDR-H3 | Kd (apparent) | detected | signal with controls
GFTLNSYGIS | VIYSDMRRTFYGDSVK | GRAAGTADP | nd | 0/3 | 0/9
GFTLNSYGIS | VIYSDGRRTFYGDSVL | DRAAGTFVS | 6.0 nM | 3/3 | 2/9
GFTLNSYGVS | EIYSDGRRTFYGSSVK | GRAAGTFDS | nd | 0/3 | 0/9
GFFKNSYGIS | VIYSDGSRTFYGDSVK | GRAAGTFDS | nd | 0/3 | 0/9
GFTLNSYGIS | VIYSDGRRTFYEDSVK | WRAAGTKDS | nd | 0/3 | 0/9
GFTLNSYGIS | VIYSDGSRTFYGDSVK | GQAASTFDS | nd | 0/3 | 0/9
GFTLNSYGIS | VIYSDGRRTSYGDYVG | GRAAGTFDS | 1.5 µM | 3/3 | 0/9
LFTLNKYGIS | VIYSDGRRTFYGDSVK | GRAAGPFDS | nd | 0/3 | 1/9
GFTLNSYGIS | VIYSDGTWTFYGDSVK | GRAAGSFDS | nd | 0/3 | 0/9
GFTLNSYGIS | VICSDGRRTFYGDRVK | GRAAGTFDS | 11 µM | 3/3 | 7/9
GFTLNSYGIS | VIYSDGRRTFYADSVK | GRAAGLPDS | 930 pM | 3/3 | 4/9
GATLNSYGDS | VIYSDGRRTFYGDQVK | GRAAGTFDS | 14 µM | 2/3 | 2/9
GETLNSGGIS | VIYSDGRRTFYGDSVK | PRAAGTFDS | nd | 0/3 | 1/9
GFTLNSYGIS | VIYSDGRRTFYGDSVK | PWAAGTFDM | nd | 0/3 | 0/9
GFTLNSIGIS | VDYSDGRRTFYGDSVK | GRAAGIFDS | 2.7 µM | 1/3 | 2/9
GFTLNSYNIS | VIYSDGMRTFYIDSVK | GRAAGTFDS | 8.0 nM | 3/3 | 1/9
GFTTNSYGIS | VIYSDGRRTFYGDSVK | CRAAGTFDS | nd | 0/3 | 0/9
GFTLNSYGIV | VVYSDGRRTFYGDSVK | GTAAGTFDS | nd | 0/3 | 0/9
GFTLNSYGIS | VIYSDGRRTFYGHSVK | GRACGTKDS | nd | 0/3 | 0/9
SFTLNSYSIQ | VIYSDGRRTFYGDSVK | GRAAGTFDS | nd | 0/3 | 3/9
GKTLQSYGIS | VIYSDGRRTFYGDSVE | GRAAGTFDS | 99 nM | 3/3 | 1/9
GFILNSVGIS | VIYSDGRRTFYGDSVK | GRAAGTFMS | 17 µM | 2/3 | 3/9
GFFLNSYGIS | VNYSDGRRTFYGDSVK | GRAAGTFDW | 1.0 mM | 2/3 | 4/9
GFTLNGYGIS | VKYSDGRRTFYGDSVK | GRAAATFDS | nd | 0/3 | 0/9
GFTLNSYGIS | VIYSDGRRTFYGDSVK | GKAAGTADS | 4.2 µM | 1/3 | 3/9
CFTLNSYGIS | VIYSDGRRTFYGDSVK | GRAAGYFDS | 2.7 µM | 3/3 | 4/9
GFTLNSYGIS | VIISDGRRTFYGDYVK | GWAAGTFDS | nd | 0/3 | 1/9
GFTLNSYGIS | VIYSDHRNTFYGDCVK | GRAAGTFDS | nd | 0/3 | 0/9
GFSLNAYGIS | VIYSDVRRTFYGDSVK | GRAAGTFDS | nd | 0/3 | 1/9
GFTLNSYKIS | VIYSDGERTFYGDSVK | GRAAGSFDS | nd | 0/3 | 1/9
GFTLNSQGIS | VIYSDGRRTFYGDSYK | GRAASTFDS | nd | 0/3 | 0/9
PFTLNSYGIS | VIYSDGRRTFYGDSVK | GRDAGTCDS | 7.7 µM | 3/3 | 0/9
GFGLNSYGIS | VIYSDYRRTFYGDSVK | GRAAGTFDS | 470 µM | 1/3 | 1/9
GFTLNSYGIS | VIYSDGRRTFYGDSVM | GIAAGGFDS | 4.4 µM | 1/3 | 4/9
GFRLNSYGIS | VFYSDGRRTFYGDSVK | GRWAGTFDS | nd | 0/3 | 0/9
GFTLNSYGIS | VITSDGRRWFYGDSVK | GLAAGTFDS | nd | 0/3 | 0/9
GFDLNSYGES | VIYSDGRRTFYPDSVK | GRAAGTFDS | nd | 0/3 | 1/9
GFTLNKYGHS | VIYSDGFRTFYGDSVK | GRAAGTFDS | 170 nM | 1/3 | 1/9
GFTLNSYGIS | VIYSDSRRTFYGDSVK | GRAAGCMDS | nd | 0/3 | 0/9
NFTLNSYGIS | VIYIDGRRTFYGDSVK | GRAAGGFDS | nd | 0/3 | 1/9
GFTLNSYGIS | VIYSDGRRTFYGHSVK | GRDAGTFDS | 43 nM | 3/3 | 1/9
GFTHNSYGIS | VIYSDGRRTFYADSVK | GQAAGTFDS | nd | 0/3 | 1/9
GFTLNSYGIS | VIYSQGCRTFYGPSVK | GRAAGTFDS | 1.6 µM | 1/3 | 2/9
GFTLESYGLS | VIYSDGRRTFYGDSVK | GRAAHTFDS | 14 µM | 1/3 | 2/9
GPTLNSYGIS | VIYSDGRRTFYTDSVK | DRAAGTFDS | 17 nM | 3/3 | 0/9
GFTLNSPGIS | VIYSDGRRTFYGDSVK | GRAAGYFCS | 98 µM | 1/3 | 0/9
GFTLNSYGIS | VIYSDGRRTFYGISVN | GRGAGTFDS | nd | 0/3 | 0/9
GFTLNSYMIS | VIYSDGRRCFYGDSVK | GRAAGTFDI | nd | 0/3 | 0/9
GFTLNSYGIS | VIYSDGRETFYGDSVK | GRAAGTFVS | nd | 0/3 | 1/9
GFTLNSYGIS | VIYSFGRRTFNGDSVK | YRAAGTFDS | nd | 0/3 | 0/9
GFTLNSYGIS | VIVSDGRRTFYGDMVK | GRAAGTFQS | 14 µM | 1/3 | 2/9
GCTLNSYKIS | VIYSDGRRTFYGDSVK | GKAAGTFDS | nd | 0/3 | 0/9
GFTLNSYGIS | FIYSDGRRTFYGDSVK | GRGAGTFDS | nd | 0/3 | 0/9
GFTLNSYGIS | VIYSDGFMTFYNDSVK | GRAAGTFDS | nd | 0/3 | 1/9
GPTLNSYGIS | VIYSDGRRTFYHDSVK | GRAAGTFDS | 12 nM | 3/3 | 4/9
GFTLISKGIS | VRYSDGRRTFYGDSVK | GRAAGTFDS | 14 µM | 2/3 | 2/9
KFTLNSYGIS | VIYSDGRRTFYVDSVK | GRAAGTFDS | 9.9 µM | 3/3 | 0/9
GFTLNSYAIS | AIYSDGRRTFYGDSIK | GRAAGTFDS | 31 µM | 2/3 | 2/9
GFTLNSYWIS | VICSDGRRTFYGSSVK | GRAAGTFDS | 41 µM | 1/3 | 3/9
GFTLNSYGIS | VIYSDGRRTFYGDSVK | GRAAGHFPF | nd | 0/3 | 0/9
SFTLNSYGIS | VTYSDGRRTFYGDSVK | GRAAGTFDS | 260 nM | 1/3 | 1/9
GFTLNAYGIS | VNYSDGRRTFYGDSVK | GRAVGTFDS | nd | 0/3 | 4/9
GFTLNSYGIS | VIYLDMRRTFYGDSVK | GRAAGTFDS | 110 µM | 1/3 | 2/9
GFTLNSYGIS | VGYSDGRRTFYGDSVK | GRAAGIFTS | 21 µM | 1/3 | 2/9
GFDLNSYGIS | VIYSDGRRTFYGDWVL | GRAAGTFDS | 960 nM | 2/3 | 0/9
GFTLNSYAIS | VIYSDGRRVFYGDSVK | GRAAATFDS | 160 µM | 3/3 | 7/9
GFTLNHYGIS | VIYSDGRRTFYTFSVK | GRAAGTFDS | nd | 0/3 | 0/9
GFTLNSYGIN | VIYSDGRRTPYGDSVK | GRAAGTFDS | 15 µM | 2/3 | 1/9

Extract of 7 entries:

CDR-H1 | CDR-H2 | CDR-H3 | Kd (apparent) | detected | signal with controls
GFTLNGYGIS | VKYSDGRRTFYGDSVK | GRAAATFDS | nd | 0/3 | 0/9
GFTHNSYGIS | VIYSDGRRTFYADSVK | GQAAGTFDS | nd | 0/3 | 1/9
GETLNSGGIS | VIYSDGRRTFYGDSVK | PRAAGTFDS | nd | 0/3 | 1/9
GFGLNSYGIS | VIYSDYRRTFYGDSVK | GRAAGTFDS | 470 µM | 1/3 | 1/9
GFTLESYGLS | VIYSDGRRTFYGDSVK | GRAAHTFDS | 14 µM | 1/3 | 2/9
SFTLNSYGIS | VTYSDGRRTFYGDSVK | GRAAGTFDS | 260 nM | 1/3 | 1/9
GFTTNSYGIS | VIYSDGRRTFYGDSVK | CRAAGTFDS | nd | 0/3 | 0/9

For reference, the parent read 4.4 nM as the reference entry and 13 µM (one replicate of three) as a member of this library.

The measurements come from Engelhart et al. 2022 (doi:10.1038/s41597-022-01779-4) through the FLAb antibody collection.